Measured values as given in patent US9649269B2, “Use of glycosaminoglycan lipoate esters in the trichology field” (SIGEA S.R.L., priority 2010, dated 2017).

Test system: "endo" bovine testicular hyaluronidase
Settings: 1.0% w/w in acetate buffer, enzyme/polymer ratio 1:200, 37° C.

Lipoic and Formic Ester of Hyaluronic Acid Sodium Salt [Example 1]
resistance to enzymatic degradation: resists the enzymatic action longer than native HA
